Results on 6 compounds are retold here after patent US20260258064A1 (SIRONAX LTD., priority 2023, published 2026).

Protein sequences, listed by entry. Tags and fused reporters are not part of them. Residues count along the entry.
UniProt Q6SZW1, 50-724 limits assumed: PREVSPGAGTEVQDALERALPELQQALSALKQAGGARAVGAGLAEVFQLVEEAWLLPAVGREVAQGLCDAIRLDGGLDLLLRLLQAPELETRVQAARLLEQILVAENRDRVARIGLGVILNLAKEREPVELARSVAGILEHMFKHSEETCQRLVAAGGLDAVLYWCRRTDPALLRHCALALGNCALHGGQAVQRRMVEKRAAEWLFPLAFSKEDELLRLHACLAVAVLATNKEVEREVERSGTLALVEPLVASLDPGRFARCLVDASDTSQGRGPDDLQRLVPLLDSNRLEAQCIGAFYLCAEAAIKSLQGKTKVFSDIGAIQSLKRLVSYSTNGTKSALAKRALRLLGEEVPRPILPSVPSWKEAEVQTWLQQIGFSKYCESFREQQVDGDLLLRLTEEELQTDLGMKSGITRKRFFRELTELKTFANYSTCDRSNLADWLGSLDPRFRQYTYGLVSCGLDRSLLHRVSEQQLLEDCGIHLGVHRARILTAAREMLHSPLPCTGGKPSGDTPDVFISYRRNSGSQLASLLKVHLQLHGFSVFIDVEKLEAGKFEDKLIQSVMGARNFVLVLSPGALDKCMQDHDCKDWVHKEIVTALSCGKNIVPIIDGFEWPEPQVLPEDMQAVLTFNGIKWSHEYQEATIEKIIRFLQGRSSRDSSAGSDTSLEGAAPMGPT

Broadly, the IC50 is the midpoint of a concentration-inhibition curve.

Each structure is given as a SMILES string.

In this test the target is SARM1 (50-724) (Homo sapiens, UniProt Q6SZW1). Briefly: SARM1 (50-724) enzymatic assay (LC-MS/MS). As to conditions: read-out: IC50 (SARM1 inhibitory activity), Purified SARM1 (50-724) 2 nM, NMN as activator, NAD+ as substrate, 1 h at room temperature. On the procedure: An enzymatic assay was performed in a 384-well plate using Dulbecco's phosphate-buffered saline (PBS) as the reaction buffer. Purified SARM1 (50-724) with a final concentration of 2 nM was pre-incubated with a test compound at […] final assay concentration for 15 min at room temperature. The reaction was initiated by adding a mixture of […] nicotinamide mononucleotide (NMN) as activator and […] NAD^+ as substrate. After 1 h of incubation at room temperature, the reaction was terminated with 10 times volume of 70% acetonitrile, and then centrifuged at 3800 rpm for 10 min. The samples were analyzed using LC-MS/MS after diluted to a proper concentration by 10 mM ammonium acetate (pH 9.75).
In Table 2, activity is provided as follows: A: IC50≤100 nM; B: 100 nM<IC50≤500 nM; C: 500 nM<IC50≤1000 nM; D: IC50>1000 nM.
With `OC1(C#Cc2ccc3[nH]c(-c4nncn4-c4ccc(F)c(F)c4Cl)nc3c2)CC1`, the IC50 is greater than 1000 nM.
In the case of `Cc1c(Cl)cncc1-n1cnnc1-c1[nH]c2ccc(C(F)(F)F)cc2c1C(N)=O`, the IC50 is less than 100 nM.
Then `Cc1c(Cl)cncc1-n1cnnc1-c1[nH]c2ccc(C(F)(F)F)cc2c1C#N`, with less than 100 nM; and `FC(F)(F)c1ccc2[nH]c(-c3cncn3-c3cnccc3C(F)(F)F)nc2c1`, with less than 100 nM; and `FC(F)(F)c1ccc2[nH]c(-c3nncn3-c3cnccc3C(F)(F)F)c(C3CCOC3)c2c1` (stereo not drawn), with less than 100 nM.
As for `Fc1cc(C(F)(F)F)cc2cc(-c3nncn3-c3cnccc3C(F)(F)F)[nH]c12`, the IC50 was less than 100 nM.
